# Assay results as given in ChEMBL document CHEMBL3259653, “Potent and selective inhibitors of human reticulocyte 12/15-lipoxygenase as anti-stroke therapies” (J Med Chem, 2014).
# Biological target: T1, Polyunsaturated fatty acid lipoxygenase ALOX15 (Homo sapiens, UniProt P16050)
# T1 sequence (P16050 whole entry): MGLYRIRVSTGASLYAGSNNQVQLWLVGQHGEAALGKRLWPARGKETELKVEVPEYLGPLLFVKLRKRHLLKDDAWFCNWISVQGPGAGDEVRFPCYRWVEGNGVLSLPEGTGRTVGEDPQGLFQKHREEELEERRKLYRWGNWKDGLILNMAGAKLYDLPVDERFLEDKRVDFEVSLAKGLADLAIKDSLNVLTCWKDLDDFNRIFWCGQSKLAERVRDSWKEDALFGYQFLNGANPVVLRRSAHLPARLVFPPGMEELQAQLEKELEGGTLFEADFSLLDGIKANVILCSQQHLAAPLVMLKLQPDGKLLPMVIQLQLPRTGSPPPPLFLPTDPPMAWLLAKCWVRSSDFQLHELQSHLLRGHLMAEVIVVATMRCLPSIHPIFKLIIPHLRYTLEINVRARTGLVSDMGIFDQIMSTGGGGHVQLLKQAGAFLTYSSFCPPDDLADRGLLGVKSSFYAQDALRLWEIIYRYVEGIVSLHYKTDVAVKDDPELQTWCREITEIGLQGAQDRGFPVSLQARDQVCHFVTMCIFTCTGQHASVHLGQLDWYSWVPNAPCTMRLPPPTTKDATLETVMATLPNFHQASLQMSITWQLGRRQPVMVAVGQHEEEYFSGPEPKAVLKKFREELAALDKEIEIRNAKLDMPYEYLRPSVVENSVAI
# Assay: Inhibition of recombinant N-terminal His6-tagged human reticulocyte 12/15-lipoxygenase using arachidonic acid as substrate by UV-vis spectrometric analysis
row,IC50,Structure (SMILES)
1,> 40 µM,CNc1ncc(-c2cccc3ccccc23)o1
2,> 30 µM,CNc1sc(-c2cccc3ccccc23)nc1C(=O)OC

row,Structure (SMILES),IC50
1,CNc1nccc(-c2cccc3ccccc23)n1,> 40 µM
